Test system: Nc1ncnc2c1ncn2[C@@H]1O[C@H](COP(=O)(O)OP(=O)(O)OP(=O)(O)O)[C@@H](O)[C@H]1O
Assay: purified protein
Details: detergent-solubilised, 20 mM Tris pH 7.4, 200 mM NaCl, 10 mM MgCl2, 0.2% Triton X-100, 37 °C, data fitted to a sigmoidal equation

## VcaM (Vibrio cholerae non-O1)
  Km: 852 µM
  kcat: 0.07 s⁻¹

From publication PMC5979437
